Experiments:
[1] = system: generic peptide substrate RRRLSFAEPG
[2] = system: standard peptide substrate LRRASLG

catalytic subunit of cyclic AMP-dependent protein kinase (PKA)
Km [1]: 30 µM
Km [2]: 18 µM
